Data published in patent US9126985B2, “Tetra- and pentasubstituted benzimidazolium compounds” (Boehringer Ingelheim International GmbH, priority 2013, dated 2015).

The chains behind the UniProt entries cited, without tags or fusion partners.
UniProt Q61180, whole entry: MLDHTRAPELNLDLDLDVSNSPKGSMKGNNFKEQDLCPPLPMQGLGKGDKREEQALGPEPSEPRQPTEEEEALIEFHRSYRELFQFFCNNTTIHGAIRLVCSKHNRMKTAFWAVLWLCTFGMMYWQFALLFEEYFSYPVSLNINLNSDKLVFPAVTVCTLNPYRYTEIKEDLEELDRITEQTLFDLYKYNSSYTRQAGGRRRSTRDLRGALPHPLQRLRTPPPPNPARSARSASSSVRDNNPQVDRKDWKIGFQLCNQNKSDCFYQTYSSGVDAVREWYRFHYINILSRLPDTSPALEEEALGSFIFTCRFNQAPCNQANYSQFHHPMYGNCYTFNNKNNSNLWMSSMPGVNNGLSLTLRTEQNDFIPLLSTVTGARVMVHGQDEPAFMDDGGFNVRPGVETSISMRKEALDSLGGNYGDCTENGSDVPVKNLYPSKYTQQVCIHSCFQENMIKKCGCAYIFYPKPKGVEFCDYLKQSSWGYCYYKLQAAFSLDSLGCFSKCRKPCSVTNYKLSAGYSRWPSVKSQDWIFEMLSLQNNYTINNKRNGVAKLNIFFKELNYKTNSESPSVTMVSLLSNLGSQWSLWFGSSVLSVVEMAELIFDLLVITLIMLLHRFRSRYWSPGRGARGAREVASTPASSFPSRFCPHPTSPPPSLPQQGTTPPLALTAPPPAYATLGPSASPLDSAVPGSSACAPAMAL
UniProt Q9WU38, whole entry: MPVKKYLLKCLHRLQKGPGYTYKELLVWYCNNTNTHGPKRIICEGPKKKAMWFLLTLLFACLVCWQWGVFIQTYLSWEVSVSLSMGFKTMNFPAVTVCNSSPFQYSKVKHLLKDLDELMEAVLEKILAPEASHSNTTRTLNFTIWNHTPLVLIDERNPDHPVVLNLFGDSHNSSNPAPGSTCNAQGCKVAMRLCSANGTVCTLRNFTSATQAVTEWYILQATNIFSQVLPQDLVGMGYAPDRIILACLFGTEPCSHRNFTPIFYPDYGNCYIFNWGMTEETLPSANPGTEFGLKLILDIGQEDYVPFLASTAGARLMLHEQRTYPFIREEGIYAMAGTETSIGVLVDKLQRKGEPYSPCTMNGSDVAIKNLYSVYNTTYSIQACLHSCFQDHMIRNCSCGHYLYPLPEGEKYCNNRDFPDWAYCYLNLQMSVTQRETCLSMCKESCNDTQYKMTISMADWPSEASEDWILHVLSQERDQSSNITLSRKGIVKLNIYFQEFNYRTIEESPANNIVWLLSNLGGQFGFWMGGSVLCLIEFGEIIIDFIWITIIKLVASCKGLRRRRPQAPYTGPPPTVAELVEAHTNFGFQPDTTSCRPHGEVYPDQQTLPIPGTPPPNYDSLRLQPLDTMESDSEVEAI
UniProt Q9WU39, whole entry: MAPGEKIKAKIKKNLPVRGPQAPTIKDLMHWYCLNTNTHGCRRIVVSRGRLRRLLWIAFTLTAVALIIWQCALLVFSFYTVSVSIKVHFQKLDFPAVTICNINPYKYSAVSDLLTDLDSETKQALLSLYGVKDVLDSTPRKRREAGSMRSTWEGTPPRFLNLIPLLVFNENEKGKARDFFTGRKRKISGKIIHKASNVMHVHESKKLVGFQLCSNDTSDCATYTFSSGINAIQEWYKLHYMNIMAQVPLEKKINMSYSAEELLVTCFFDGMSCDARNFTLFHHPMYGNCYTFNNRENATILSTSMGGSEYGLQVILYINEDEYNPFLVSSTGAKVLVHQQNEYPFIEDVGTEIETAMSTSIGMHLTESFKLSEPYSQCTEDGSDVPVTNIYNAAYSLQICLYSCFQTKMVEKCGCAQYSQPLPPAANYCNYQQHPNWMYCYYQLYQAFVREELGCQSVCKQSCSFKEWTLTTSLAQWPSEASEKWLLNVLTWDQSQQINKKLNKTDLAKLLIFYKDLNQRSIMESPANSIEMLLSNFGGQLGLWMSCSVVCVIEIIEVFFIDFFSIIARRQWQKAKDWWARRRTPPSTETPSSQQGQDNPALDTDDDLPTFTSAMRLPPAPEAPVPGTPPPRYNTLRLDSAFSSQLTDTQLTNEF

Assays:
[1] = biological target: ENaC (Epithelial Sodium Channel) (Mus musculus, UniProt Q61180+Q9WU38+Q9WU39); assay: Ussing Chamber assay: inhibition of amiloride sensitive short circuit current in M-1 cells; details: Mouse kidney M-1 cells on transwell filters, compound added to apical solution, 37° C., tested form: trifluoroacetate
Method: Mouse kidney M-1 cells were cultivated in DMEM containing 5% FCS and 5 μM dexamethasone for 10 to 12 days on polyester transwell filters. Filters were inserted into a teflon-coated well-plate which fit into the ussing chamber system. Prior to measurement the medium of M-1 cells was replaced with Caco-2 transport buffer (Invitrogen, Germany). During measurements, the Ussing chamber temperature was kept at 37° C. Short circuit currents (I_sc) were measured in the voltage-clamp mode with the software package Lab View for data acquisition and analysis. The transepithelial electrical resistance (TEER) was determined by the application of voltage steps of ±5 mV every 5 sec. Compounds were administered at a final concentration of 3 μM or at increasing concentrations (1-3-10 μM) to the apical solution. At the end of each experiment the amiloride sensitive I_SC was measured by adding 3 μM amiloride to the apical compartment. Results are expressed as inhibition in percent of the amiloride effect or as IC50.
With the example compounds given above, the following IC50 values were determined in the Ussing Chamber assay: […]

[2] = tested on: CALU-3 cells; assay: Permeability in CALU-3 cells; details: CALU-3 cell monolayers, pH 7.4, 37° C., 10 μM compound, tested form: trifluoroacetate
Method: Permeability in CALU-3 Cells:
Permeability measurements across polarized, confluent CALU-3 cell monolayers grown on permeable filter supports are used to provide information on the potential of a compound to pass the lung epithelium. Apparent permeability coefficients (Papp) of the compounds across the CALU-3 cell monolayers are measured (pH 7.4, 37° C.) in apical-to-basal (AB) and basal-to-apical (BA) transport direction.
CALU-3 cells (1-2×10^5 cells/1 cm^2 area) are seeded on filter inserts (Costar transwell polycarbonate filters, 0.4 μm pore size) and cultured (for 10-12 days DMEM) until tight monolayers are formed. Compounds of interest are dissolved in appropriate solvent (DMSO, 10 mM stock solution). […] The compound concentration in the samples is measured by HPLC-MS/MS or scintillation counting. The permeability coefficient (Papp) and efflux ratio are calculated according to: Papp [cm/s]=(concentration receiver [nM]*volume receiver [mL]/time interval [sec])*(1/filter area)*(1/donor concentration [nM])
With example compounds given above, the following permeability values were determined in the CALU-3 cells assay: […]

SMILES	IC50 [1] [nM]	Papp, AB ([2]; apical-to-basal)	Papp, BA ([2]; basal-to-apical)
CCn1c(CNC(=O)c2nc(Cl)c(N)nc2N)[n+](CCCC#N)c2ccc(O)cc21	11	–	–
C=CC[n+]1c(CNC(=O)c2nc(Cl)c(N)nc2N)n(CC)c2cc(OCCCP(=O)(OCC)OCC)ccc21	1	–	–
CCn1c(CNC(=O)c2nc(Cl)c(N)nc2N)[n+](CCCCn2cc(C(=O)N(C)C)ccc2=O)c2ccc(OCCO)cc21	13	0.6 10^−6 cm/s	0.05 10^−6 cm/s
